What was measured:
[1] = target: Vascular endothelial growth factor receptor 2 (Homo sapiens) (UniProt P35968); assay: Inhibition of KDR at 1 uM in presence of 10 uM ATP by Select Screen kinase assay relative to untreated control
Outline: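 Single-concentration profiling at 1 μM against a panel of 220 purified kinases, run as an outsourced SelectScreen kinase profiling service. Activity is expressed as percent inhibition.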

Amino acid sequences for entries named in this document (tags omitted).
UniProt P35968, whole entry: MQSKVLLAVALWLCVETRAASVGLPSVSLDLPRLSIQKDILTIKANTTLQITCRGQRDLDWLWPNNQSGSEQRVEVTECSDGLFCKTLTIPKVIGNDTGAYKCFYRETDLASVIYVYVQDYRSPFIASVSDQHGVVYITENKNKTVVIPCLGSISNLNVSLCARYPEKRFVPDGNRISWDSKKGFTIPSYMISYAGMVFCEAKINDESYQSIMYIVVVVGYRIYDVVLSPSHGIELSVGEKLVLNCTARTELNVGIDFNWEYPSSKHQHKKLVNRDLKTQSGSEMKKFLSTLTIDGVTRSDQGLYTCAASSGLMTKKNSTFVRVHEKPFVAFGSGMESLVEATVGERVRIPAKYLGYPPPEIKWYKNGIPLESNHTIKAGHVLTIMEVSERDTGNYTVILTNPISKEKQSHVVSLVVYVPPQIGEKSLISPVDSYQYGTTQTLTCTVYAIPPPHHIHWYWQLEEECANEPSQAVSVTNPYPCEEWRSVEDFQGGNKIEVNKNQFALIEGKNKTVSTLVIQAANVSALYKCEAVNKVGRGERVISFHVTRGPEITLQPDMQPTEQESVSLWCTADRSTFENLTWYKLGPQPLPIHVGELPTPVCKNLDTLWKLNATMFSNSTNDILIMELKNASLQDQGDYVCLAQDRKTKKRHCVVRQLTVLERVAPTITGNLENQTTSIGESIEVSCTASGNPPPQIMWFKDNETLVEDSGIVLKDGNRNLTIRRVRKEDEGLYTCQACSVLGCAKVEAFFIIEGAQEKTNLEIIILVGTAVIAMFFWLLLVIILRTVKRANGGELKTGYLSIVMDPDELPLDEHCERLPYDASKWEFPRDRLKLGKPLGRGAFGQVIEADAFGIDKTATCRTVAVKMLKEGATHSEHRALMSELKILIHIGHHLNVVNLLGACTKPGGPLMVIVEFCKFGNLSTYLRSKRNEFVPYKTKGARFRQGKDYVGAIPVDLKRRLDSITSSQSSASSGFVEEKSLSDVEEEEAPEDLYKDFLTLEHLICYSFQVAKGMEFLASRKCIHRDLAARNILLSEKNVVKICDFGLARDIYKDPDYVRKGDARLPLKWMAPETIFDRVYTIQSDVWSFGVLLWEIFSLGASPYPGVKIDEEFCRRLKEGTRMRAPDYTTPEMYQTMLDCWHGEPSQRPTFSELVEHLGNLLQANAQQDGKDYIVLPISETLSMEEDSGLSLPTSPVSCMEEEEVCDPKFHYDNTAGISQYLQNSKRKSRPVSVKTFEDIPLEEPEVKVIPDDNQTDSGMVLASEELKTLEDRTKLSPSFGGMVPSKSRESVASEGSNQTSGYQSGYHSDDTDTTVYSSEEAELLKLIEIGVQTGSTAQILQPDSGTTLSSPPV

[2] = target: T1, Ephrin type-B receptor 4 (Homo sapiens) (UniProt P54760); assay: Inhibition of EPHB4 at 1 uM in presence of 10 uM ATP by Select Screen kinase assay relative to untreated control
T1 sequence (whole entry): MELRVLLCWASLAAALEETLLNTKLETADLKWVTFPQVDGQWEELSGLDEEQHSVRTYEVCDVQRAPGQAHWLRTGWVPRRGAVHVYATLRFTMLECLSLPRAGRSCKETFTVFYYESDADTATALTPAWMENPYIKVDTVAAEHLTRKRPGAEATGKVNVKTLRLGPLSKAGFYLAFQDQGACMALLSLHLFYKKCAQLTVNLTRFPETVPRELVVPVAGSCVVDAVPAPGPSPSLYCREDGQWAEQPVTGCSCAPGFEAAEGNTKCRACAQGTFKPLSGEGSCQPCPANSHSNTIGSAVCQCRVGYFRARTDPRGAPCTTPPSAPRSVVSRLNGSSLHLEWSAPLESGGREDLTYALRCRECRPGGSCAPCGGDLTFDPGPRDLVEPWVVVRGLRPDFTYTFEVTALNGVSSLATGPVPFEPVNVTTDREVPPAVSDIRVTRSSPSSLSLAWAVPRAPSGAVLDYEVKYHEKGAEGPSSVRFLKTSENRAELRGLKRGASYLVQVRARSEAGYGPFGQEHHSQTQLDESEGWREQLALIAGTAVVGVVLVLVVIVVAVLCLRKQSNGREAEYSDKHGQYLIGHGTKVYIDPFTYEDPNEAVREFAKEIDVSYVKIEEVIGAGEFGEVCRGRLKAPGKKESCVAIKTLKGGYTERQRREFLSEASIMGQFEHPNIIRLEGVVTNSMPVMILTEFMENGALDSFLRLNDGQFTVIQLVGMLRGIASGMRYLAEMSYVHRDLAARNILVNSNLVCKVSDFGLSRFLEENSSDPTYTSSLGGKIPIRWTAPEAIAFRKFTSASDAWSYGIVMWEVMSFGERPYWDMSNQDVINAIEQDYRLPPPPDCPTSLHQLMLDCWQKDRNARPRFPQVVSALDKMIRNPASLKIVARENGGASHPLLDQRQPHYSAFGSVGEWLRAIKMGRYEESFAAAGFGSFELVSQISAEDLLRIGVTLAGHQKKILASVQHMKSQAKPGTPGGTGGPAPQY
Outline: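 Single-point screen at 1 μM against a panel of 220 purified kinases, run by Invitrogen staff as a SelectScreen profiling service. Read-out is percent inhibition of kinase activity.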

Molecule `Cc1n[nH]c2ccc(-c3cncc(OC[C@@H](N)Cc4c[nH]c5ccccc45)c3)cc12` has an inhibition [1] of 16% and an inhibition [2] of 16%.
